ChEMBL document CHEMBL3232993, “Design, synthesis, and structure-activity relationship of a novel series of GluN2C-selective potentiators” (J Med Chem, 2014)

Chains of the proteins cited; added tags and fusions are not shown. Lines headed by an entry give the natural chain unless they say otherwise; changes in a name come on top.
UniProt Q00961: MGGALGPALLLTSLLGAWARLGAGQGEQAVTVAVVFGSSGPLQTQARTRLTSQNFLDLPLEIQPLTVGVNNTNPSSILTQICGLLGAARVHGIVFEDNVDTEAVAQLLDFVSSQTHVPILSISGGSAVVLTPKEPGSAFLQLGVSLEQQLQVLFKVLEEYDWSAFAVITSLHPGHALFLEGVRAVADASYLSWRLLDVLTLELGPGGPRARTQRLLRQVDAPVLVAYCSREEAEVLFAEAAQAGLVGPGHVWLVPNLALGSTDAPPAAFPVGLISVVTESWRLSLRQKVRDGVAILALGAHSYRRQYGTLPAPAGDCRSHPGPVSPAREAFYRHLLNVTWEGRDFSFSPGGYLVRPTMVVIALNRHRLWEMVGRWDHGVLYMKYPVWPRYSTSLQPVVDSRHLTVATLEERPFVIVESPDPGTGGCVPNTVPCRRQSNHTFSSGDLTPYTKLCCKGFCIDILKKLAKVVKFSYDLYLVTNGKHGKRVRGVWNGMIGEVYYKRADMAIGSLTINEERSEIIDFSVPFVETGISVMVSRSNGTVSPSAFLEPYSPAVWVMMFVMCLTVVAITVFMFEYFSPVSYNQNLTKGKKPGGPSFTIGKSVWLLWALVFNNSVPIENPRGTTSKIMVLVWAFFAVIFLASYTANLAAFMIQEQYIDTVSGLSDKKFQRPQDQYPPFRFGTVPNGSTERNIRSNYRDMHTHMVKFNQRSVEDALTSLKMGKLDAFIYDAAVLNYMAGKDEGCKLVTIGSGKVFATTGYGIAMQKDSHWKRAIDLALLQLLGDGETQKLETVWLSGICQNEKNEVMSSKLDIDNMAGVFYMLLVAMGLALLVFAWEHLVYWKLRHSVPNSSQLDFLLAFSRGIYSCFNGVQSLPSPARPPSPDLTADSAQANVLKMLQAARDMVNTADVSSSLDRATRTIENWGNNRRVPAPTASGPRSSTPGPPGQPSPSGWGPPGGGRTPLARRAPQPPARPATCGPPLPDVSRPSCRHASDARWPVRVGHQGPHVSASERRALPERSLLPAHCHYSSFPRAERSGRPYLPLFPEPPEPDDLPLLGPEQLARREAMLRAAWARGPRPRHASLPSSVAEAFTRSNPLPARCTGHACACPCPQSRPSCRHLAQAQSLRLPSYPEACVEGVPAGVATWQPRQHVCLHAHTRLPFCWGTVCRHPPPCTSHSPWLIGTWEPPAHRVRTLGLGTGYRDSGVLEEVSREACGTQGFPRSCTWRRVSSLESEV

Biological target: Glutamate NMDA receptor; Grin1/Grin2c (Rattus norvegicus, UniProt P35439+Q00961)
Assay: Potentiation of rat recombinant GluN1/GluN2C expressed in Xenopus laevis oocytes assessed as increase in glutamate/glycine-induced current response by two-electrode voltage clamp technique relative to control
Type: cell-based
Summary of the method: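 Compounds diluted from 20 mM DMSO stocks (final DMSO 0.05–0.5%) and screened at 30 μM. EC₅₀ and maximum fitted from 5–7 concentrations when response exceeded 120% of control, normalized per oocyte; mean ± SEM.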

SMILES: COC(=O)c1ccc(C2C(C(C)=O)=C(O)C(=O)N2CCc2c[nH]c3ccccc23)cc1 (stereo unspecified)
- EC50: 24 µM
